This experiment deals with Tyrosine-protein kinase SYK (Homo sapiens, UniProt P43405). Nature of the experiment: Binding affinity against Syk protein tyrosine kinase SH2 domain. More on the design: species or system Escherichia coli.

As a reminder, the IC50 is the concentration at which inhibition is half-maximal. The low end stands for higher potency, the high end for lower potency. The compound `CC(=O)N[C@@H](CC(N)=O)C(=O)N[C@@H](CCC(N)=O)C(=O)N[C@@H](CC(C)C)C(=O)N[C@@H](Cc1ccc(OP(=O)(O)O)cc1)C(=O)N[C@@H](CC(N)=O)C(=O)N[C@@H](CCC(=O)O)C(=O)N[C@@H](CC(C)C)C(=O)N[C@@H](CC(N)=O)C(=O)N[C@@H](CC(C)C)C(=O)NCC(=O)N[C@@H](CCCN=C(N)N)C(=O)N[C@@H](CCCN=C(N)N)C(=O)N[C@@H](CCC(=O)O)C(=O)N[C@@H](CCC(=O)O)C(=O)N[C@@H](Cc1ccc(OP(=O)(O)O)cc1)C(=O)N[C@@H](CC(=O)O)C(=O)N[C@H](C(=O)N[C@@H](CC(C)C)C(=O)N[C@@H](CC(=O)O)C(N)=O)C(C)C` yielded an IC50 of 0.48 µM.

The record behind these values is ChEMBL document CHEMBL1132280, “Discovery of potent and selective SH2 inhibitors of the tyrosine kinase ZAP-70” (J Med Chem, 1999).
